# Assay results as given in article PMC11360484.
# Molecular target: recombinant ecarin (rEcarin), SVMP PIII prothrombin activator from Echis pyramidum leakeyi (Echis pyramidum leakeyi)
substance,measurement,value
recombinantly expressed human prothrombin (PT) (from UniProt P00734 44-622) (natural protein),"KM of PT activation catalysed by rEcarin (Michaelis-Menten; rEcarin 50 nM, PT 0.2-3 uM, S-2238 0.5 mM, PBS pH 7.4, 37 C; rEcarin not saturated)",4 µM
